Chains of the proteins cited; added tags and fusions are not shown.
UniProt P33535, whole entry: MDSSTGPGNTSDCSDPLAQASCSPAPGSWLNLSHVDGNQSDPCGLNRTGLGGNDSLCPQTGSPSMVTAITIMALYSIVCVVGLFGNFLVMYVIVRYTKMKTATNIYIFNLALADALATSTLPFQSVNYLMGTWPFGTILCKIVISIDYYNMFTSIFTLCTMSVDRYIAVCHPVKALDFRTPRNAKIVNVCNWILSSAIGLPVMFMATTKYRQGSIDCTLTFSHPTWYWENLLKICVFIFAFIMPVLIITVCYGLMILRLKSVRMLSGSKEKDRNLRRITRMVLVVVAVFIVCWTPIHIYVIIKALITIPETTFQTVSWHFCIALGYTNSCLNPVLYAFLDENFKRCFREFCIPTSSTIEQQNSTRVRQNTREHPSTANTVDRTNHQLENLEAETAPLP

In publication PMC3818563, “Effect of Iboga Alkaloids on µ-Opioid Receptor-Coupled G Protein Activation” (PLoS ONE, 2013):

Target: μ-opioid receptor (MOR) (Rattus norvegicus, UniProt P33535)
Assay: [35S]GTPγS binding in Sprague-Dawley rat thalamic membranes (Reith lab)
Type: biochemical
Set-up: from tissue; host or cells: rat thalamus membranes (Sprague-Dawley; also Fischer F344 in the Janowsky lab)

For Ibogaine HCl, the Ki (read-out: Antagonist activity Ke (functional Ki)) was 3 µM and 3.05 µM and the IC50 (read-out: IC50 for inhibition of the stimulatory response evoked by DAMGO) was 19.3 ± 4.3 µM.

Several values for one entry are separate records, joined by “and”; a condition that tells them apart may be missing. Identical values can stand only once.
